Experimental data from publication PMC4993486, “Engineering of Recombinant Poplar Deoxy-D-Xylulose-5-Phosphate Synthase (PtDXS) by Site-Directed Mutagenesis Improves Its Activity” (PLoS ONE, 2016).

Amino acid sequences for entries named in this document (tags omitted). Residues count along the entry.
UniProt U5G0H4, 74-721 A220G: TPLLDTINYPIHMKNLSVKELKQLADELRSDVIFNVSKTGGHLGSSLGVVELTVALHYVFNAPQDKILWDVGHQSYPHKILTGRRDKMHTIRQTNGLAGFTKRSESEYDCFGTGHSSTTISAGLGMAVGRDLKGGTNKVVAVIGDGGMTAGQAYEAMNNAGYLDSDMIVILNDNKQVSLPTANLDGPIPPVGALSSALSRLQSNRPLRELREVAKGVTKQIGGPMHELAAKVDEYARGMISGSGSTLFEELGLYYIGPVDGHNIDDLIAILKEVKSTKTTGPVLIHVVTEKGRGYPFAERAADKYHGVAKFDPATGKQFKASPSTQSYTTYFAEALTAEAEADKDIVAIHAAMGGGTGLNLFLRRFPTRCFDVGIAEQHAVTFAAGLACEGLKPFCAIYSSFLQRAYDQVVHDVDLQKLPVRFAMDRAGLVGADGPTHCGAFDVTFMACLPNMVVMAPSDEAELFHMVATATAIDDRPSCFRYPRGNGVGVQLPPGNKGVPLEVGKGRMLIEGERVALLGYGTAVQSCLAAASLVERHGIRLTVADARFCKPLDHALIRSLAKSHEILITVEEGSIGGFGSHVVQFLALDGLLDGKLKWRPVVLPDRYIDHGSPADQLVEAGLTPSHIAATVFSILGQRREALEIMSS
UniProt U5G0H4, 74-721 A220G/A425G: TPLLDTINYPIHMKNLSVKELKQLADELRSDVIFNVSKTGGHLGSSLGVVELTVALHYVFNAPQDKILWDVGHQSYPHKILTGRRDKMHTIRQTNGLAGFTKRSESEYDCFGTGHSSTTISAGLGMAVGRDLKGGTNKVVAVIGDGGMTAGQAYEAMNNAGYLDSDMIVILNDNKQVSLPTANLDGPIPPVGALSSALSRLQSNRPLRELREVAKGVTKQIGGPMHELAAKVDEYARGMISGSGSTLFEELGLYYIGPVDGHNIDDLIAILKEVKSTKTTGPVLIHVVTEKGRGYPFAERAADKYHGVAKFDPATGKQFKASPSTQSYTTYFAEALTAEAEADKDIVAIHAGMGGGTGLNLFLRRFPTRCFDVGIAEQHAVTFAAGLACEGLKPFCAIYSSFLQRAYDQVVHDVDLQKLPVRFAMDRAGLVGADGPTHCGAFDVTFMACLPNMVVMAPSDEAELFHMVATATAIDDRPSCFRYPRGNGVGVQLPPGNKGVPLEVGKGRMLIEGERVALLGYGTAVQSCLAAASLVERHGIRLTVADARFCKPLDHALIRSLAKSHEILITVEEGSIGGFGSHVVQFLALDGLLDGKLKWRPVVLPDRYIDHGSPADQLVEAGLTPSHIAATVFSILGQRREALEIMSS

Columns and labels:
[1] = target: T1, Deoxyxylulose 5-phosphate synthase (PtDXS) (Populus trichocarpa, UniProt U5G0H4, A425G); format: biochemical
T1 construct: gene POPTR_010G015200; C-terminally His-tagged PtDXS
T1 sequence (U5G0H4 74-721 A425G): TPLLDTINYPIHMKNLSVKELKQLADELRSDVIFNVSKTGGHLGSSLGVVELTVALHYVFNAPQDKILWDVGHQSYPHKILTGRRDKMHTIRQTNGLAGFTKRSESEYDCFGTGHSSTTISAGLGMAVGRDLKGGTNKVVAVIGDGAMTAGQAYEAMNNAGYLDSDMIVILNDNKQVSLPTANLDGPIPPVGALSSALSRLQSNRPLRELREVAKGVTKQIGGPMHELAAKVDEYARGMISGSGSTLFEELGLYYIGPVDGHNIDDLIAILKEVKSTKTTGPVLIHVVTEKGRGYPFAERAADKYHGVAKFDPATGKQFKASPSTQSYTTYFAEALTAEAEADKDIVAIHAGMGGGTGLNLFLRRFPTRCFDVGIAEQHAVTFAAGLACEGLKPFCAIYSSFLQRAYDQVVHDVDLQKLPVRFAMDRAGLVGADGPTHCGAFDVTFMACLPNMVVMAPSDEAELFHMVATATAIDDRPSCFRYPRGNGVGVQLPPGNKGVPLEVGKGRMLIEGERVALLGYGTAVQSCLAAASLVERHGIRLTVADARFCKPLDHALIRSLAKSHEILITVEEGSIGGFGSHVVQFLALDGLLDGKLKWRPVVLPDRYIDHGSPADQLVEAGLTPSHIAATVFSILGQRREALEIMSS

[2] = target: T2, Deoxyxylulose 5-phosphate synthase (PtDXS) (Populus trichocarpa, UniProt U5G0H4, A220G); assay: biochemical
T2 construct: gene POPTR_010G015200; C-terminally His-tagged PtDXS
T2 sequence (U5G0H4 74-721 A220G): T1 sequence (U5G0H4 74-721 A425G) with A147G, G352A

[3] = target: T3, Deoxyxylulose 5-phosphate synthase (PtDXS) (Populus trichocarpa, UniProt U5G0H4, A220G/A425G); assay: biochemical
T3 construct: gene POPTR_010G015200; C-terminally His-tagged PtDXS
T3 sequence (U5G0H4 74-721 A220G/A425G): T1 sequence (U5G0H4 74-721 A425G) with A147G

C=C(C)CCO[P@@](=O)(O)OP(=O)(O)O [IDP]
Ki [1]: 31 ± 4 µM | Ki [2]: 73 ± 2 µM | Ki [3]: 268 ± 75 µM

Residue numbers refer to the chain shown, from its start.
